The test system of data set [1] is mouse brain (blood-brain barrier). The following applies: in vivo.
The test system of data set [2] is mouse brain capillaries / parenchyma. To be noted: in vivo, iv.
Data set [3] concerns mouse brain (blood-brain barrier). To be noted: in vivo. This is another data set of the same source.
The conditions of data set [4]: mouse, in vivo, iv.

For “Bovine Serum Albumin [BSA, reference compound]”, in data set [1], the “Brain distribution volume, V0” value came out at 14.59 ± 1.23 µL/g. For the same substance, in data set [1] (iv), the Kin came out at 0.12 ± 0.08 µL/g/min and the “Kin (text)” value stood at 0.12 µL/g/min. Moreover, in data set [2], the Capillary fraction is reported as 19.4% and the Parenchymal fraction is reported as 80.6%. In the data set on blood-brain barrier, the BBB influx classification result is “very low influx”. Further, the kout in data set [3] came out at 0.01 ± 0.03 min⁻¹. For the same substance, the “Tissue distribution (in words)” value in data set [4] is given as “clear liver distribution”.
